Source: patent US8895604B2, “Solid forms of (1r,4r)-6′-fluoro-N,N-dimethy1-4-phenyl-4′,9′-dihydro-3′ H-spiro-[cyclohexane-1,1′-pyrano-[3,4,b]indol]-4-amine hydrochloride” (dated 2014)

Legend:
[1] = Solubility in water (saturated solutions, HPLC); settings: RT
[2] = Physical and chemical stability on storage (HPLC purity, PXRD)
[3] = Dynamic vapour sorption (DVS); settings: 50→0→95→50% r.h. (2.5%/h)
[4] = TG-FTIR thermogravimetric analysis; settings: nitrogen, 10° C./min, 25 up to 350° C., hydrochloride
[5] = Suspension equilibration experiments; settings: suspended for several days in water at RT; Raman in the wet state
[6] = Storage at high relative humidity with FT-Raman / TG-FTIR

## CN(C)[C@]1(c2ccccc2)CC[C@]2(CC1)OCCc1c3cc(F)ccc3[nH]c12
[1]; bidest H2O, saturated solution, 24 h equilibration time, HPLC
  solubility: <0.30 µg/mL
[1]; pH of the saturated solution in bidest H2O, 24 h
  resulting pH: 8.4
[2]; closed vials, HPLC
  Purity, 1 week at 80° C.: 99.7 area %
[2]; closed vials, change of PXRD pattern
  PXRD, 1 week at 80° C.: new peaks
[2]; open vials, HPLC
  Purity, 4 weeks at 40° C., 75% r.h.: 99.5 area %
[2]; open vials, change of PXRD pattern
  PXRD, 4 weeks at 40° C., 75% r.h.: new peaks
[2]; reference, before storage, HPLC
  Ref. Purity: 99.7 area %
[2]; summary of both storage conditions (4 weeks 40° C./75% r.h.; 1 week 80° C.)
  degradation after stability testing: clearly changes

## (1r,4r)-6′-fluoro-N,N-dimethyl-4-phenyl-4′,9′-dihydro-3′H-spiro[cyclohexane-1,1′-pyrano[3,4,b]indol]-4-amine hydrochloride [crystalline form B]
[3]
  relative humidity above which strong water uptake occurs in DVS: above 74 % r.h
[4]
  temperature above which decomposition was observed: above 270 °C
[5]
  conversion of crystalline form in suspension: no conversion
[6]; about 3 weeks at 97% r.h. at RT
  conversion of crystalline form on storage: no conversion
[6]; more than 2 weeks at 75.5% r.h. at RT
  conversion of crystalline form on storage: No conversion
[6]; more than 2 weeks at 97% r.h. at RT
  conversion of crystalline form on storage: No conversion

## (1r,4r)-6′-fluoro-N,N-dimethyl-4-phenyl-4′,9′-dihydro-3′H-spiro[cyclohexane-1,1′-pyrano[3,4,b]indol]-4-amine hydrochloride [crystalline form C]
[4]
  temperature above which decomposition was observed: above 270 °C

## (1r,4r)-6′-fluoro-N,N-dimethyl-4-phenyl-4′,9′-dihydro-3′H-spiro[cyclohexane-1,1′-pyrano[3,4,b]indol]-4-amine hydrochloride [crystalline form D]
[4]
  temperature above which decomposition was observed: above 270 °C

## (1r,4r)-6′-fluoro-N,N-dimethyl-4-phenyl-4′,9′-dihydro-3′H-spiro[cyclohexane-1,1′-pyrano[3,4,b]indol]-4-amine hydrochloride [crystalline form E]
[4]
  temperature above which decomposition was observed: above 270 °C

## (1r,4r)-6′-fluoro-N,N-dimethyl-4-phenyl-4′,9′-dihydro-3′H-spiro[cyclohexane-1,1′-pyrano[3,4,b]indol]-4-amine hydrochloride [crystalline form F]
[4]
  temperature above which decomposition was observed: above 270 °C

## (1r,4r)-6′-fluoro-N,N-dimethyl-4-phenyl-4′,9′-dihydro-3′H-spiro[cyclohexane-1,1′-pyrano[3,4,b]indol]-4-amine hydrochloride [crystalline form G]
[4]
  temperature above which decomposition was observed: > 350 °C
